These results are taken from ChEMBL document CHEMBL1129517, “Pyrazolo[4,3-e]-1,2,4-triazolo[1,5-c]pyrimidine derivatives: potent and selective A(2A) adenosine antagonists” (J Med Chem, 1996).

In this experiment the test system is Adenosine receptor A2a (Oryctolagus cuniculus).

Compound `Cn1ncc2c1nc(N)n1nc(-c3ccco3)nc21` displayed an ED50 of 0.3 µM.

Take `Nc1nc2nn(CCc3ccccc3)cc2c2nc(-c3ccco3)nn12`: the ED50 worked out at 0.2 µM. `Nc1nc2c(cnn2CCCc2ccccc2)c2nc(-c3ccco3)nn12` [SCH-63390]: the ED50 amounted to 0.02 µM.

As for `Nc1nc2c(cnn2CCCCc2ccccc2)c2nc(-c3ccco3)nn12`, the ED50 is above 1 µM. The result for `CCC(C)Cn1ncc2c1nc(N)n1nc(-c3ccco3)nc21` (stereo not given) reads 0.3 µM; that for `Nc1nc2c(cnn2CCOCc2ccccc2)c2nc(-c3ccco3)nn12`, above 10 µM. Compound `CCCCn1cc2c(nc(N)n3nc(-c4ccco4)nc23)n1` displayed an ED50 of 0.04 µM. The compound `CC(C)(C)n1ncc2c1nc(N)n1nc(-c3ccco3)nc21` displayed an ED50 above 10 µM. `Nc1nc2n[nH]cc2c2nc(-c3ccco3)nn12` yielded an ED50 of 0.1 µM. Turning to `OCCn1ncc2c1nc(NCc1ccccc1)n1nc(-c3ccco3)nc21`, the ED50 is above 10 µM.
